Antibody variant affinities, Ab-14 heavy chain, assay B

Target peptide (SARS-CoV-2 spike, HR2 region): PDVDLGDISGINAS

Each scFv is VH, three GGGGS repeats, VL, as in the parent Ab-14, and differs from it in the CDRs of the heavy chain only.
VH: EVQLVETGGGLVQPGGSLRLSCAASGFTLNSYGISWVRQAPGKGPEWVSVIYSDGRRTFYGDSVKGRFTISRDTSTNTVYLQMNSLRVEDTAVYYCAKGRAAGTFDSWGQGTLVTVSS
VL: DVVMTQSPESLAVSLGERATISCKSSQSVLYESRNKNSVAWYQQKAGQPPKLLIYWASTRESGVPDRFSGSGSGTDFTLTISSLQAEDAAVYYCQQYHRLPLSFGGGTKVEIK

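These sequences belong to a second round, designed from the earlier measurements on random variants of the parent. Their group label is 14H_En_Gen (En: ensemble of fine-tuned language models; Gen: genetic algorithm). AlphaSeq pools MATa yeast showing the antibodies with MATalpha yeast showing the peptide. Mating (16 h, 30 °C) was followed by selection of diploids and sequencing of their barcodes. Scores were corrected for input abundance and mapped to Kd with protein pairs of known affinity run in the same pool. The assay was run in six technical replicates.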

The parent's heavy chain CDRs are GFTLNSYGIS, VIYSDGRRTFYGDSVK, GRAAGTFDS; each variant's own CDRs replace them letter for letter.
Values are log10 of the apparent Kd in nM; lower means stronger binding.
The mean shown is taken over the replicates in which the pair was detected.
A pair that was not seen in that replicate is written "nd"; this usually means weak binding, but a binder can also be missed.
Background: pairings of all heavy chain designs with three empty control strains gave a value in 1% of cases (median 2.08, 5th percentile 0.84). Values in that range, when seen in few replicates, are hard to tell from nonspecific mating. The control count says in how many pairings with the empty strains this scFv gave a signal, with their mean in brackets.
The authors averaged sequences with at least three values out of six and counted those with two or fewer as poor binders.
Values of this round are not directly comparable with the first-round values of the same sequences.
The parent sequence was in this pool as ten entries: three were never detected, three once, and four in most replicates, with averages from 0.34 to 2.37.

{"CDR-H1": "GFDLDEYGIS", "CDR-H2": "VIYADGQRTYYADSVK", "CDR-H3": "GQNAGTFDV", "log10 Kd (nM) by replicate": "0.67 / 0.52 / 0.03 / 0.43 / 0.37 / 0.44", "mean, log10 nM": "0.41", "signal with controls": "2 of 18 (2.00)"}
{"CDR-H1": "GFDLDEYGIS", "CDR-H2": "VIYADGVRTAYADSVK", "CDR-H3": "GNQAGTFDV", "log10 Kd (nM) by replicate": "0.05 / 0.02 / 0.14 / -0.19 / 0.29 / 0.60", "mean, log10 nM": "0.15", "signal with controls": "1 of 18 (1.68)"}
{"CDR-H1": "GFDLDEYGIS", "CDR-H2": "VIYADGVRKAYADSVK", "CDR-H3": "GENAGTFDV", "log10 Kd (nM) by replicate": "0.40 / 0.96 / 1.26 / -0.04 / 0.54 / 0.27", "mean, log10 nM": "0.57", "signal with controls": "0 of 18"}
{"CDR-H1": "GFDLNEYGIS", "CDR-H2": "VIYADGVRTAYVDSVK", "CDR-H3": "GNVAGTFDI", "log10 Kd (nM) by replicate": "-0.47 / -0.27 / -0.51 / -0.47 / -0.43 / -0.31", "mean, log10 nM": "-0.41", "signal with controls": "1 of 18 (3.11)"}
{"CDR-H1": "GFDLNEYGIS", "CDR-H2": "VIYADGSRTAYADNVK", "CDR-H3": "GNVAGTFDL", "log10 Kd (nM) by replicate": "-0.03 / 0.77 / -0.28 / -0.10 / -0.37 / 0.63", "mean, log10 nM": "0.10", "signal with controls": "0 of 18"}
{"CDR-H1": "GFDLNEYGIS", "CDR-H2": "VIYADGSRTAYSDSVK", "CDR-H3": "GNVAGTFDL", "log10 Kd (nM) by replicate": "-0.41 / -0.50 / -0.62 / -0.71 / -0.61 / 0.11", "mean, log10 nM": "-0.46", "signal with controls": "0 of 18"}
{"CDR-H1": "GFDLDEYGIS", "CDR-H2": "VIYADGMRTAYSDNVK", "CDR-H3": "GEVAGTFDL", "log10 Kd (nM) by replicate": "0.47 / -0.52 / 0.07 / -0.71 / -0.08 / -0.31", "mean, log10 nM": "-0.18", "signal with controls": "0 of 18"}
{"CDR-H1": "GFDLNEYGIS", "CDR-H2": "VIYADGMRTAYIDSVK", "CDR-H3": "GEVAGTFDQ", "log10 Kd (nM) by replicate": "-0.77 / -0.63 / -0.79 / -0.77 / -0.72 / -0.46", "mean, log10 nM": "-0.69", "signal with controls": "0 of 18"}
{"CDR-H1": "GFDLNEYGIS", "CDR-H2": "VIYADGSRTAYTDSVK", "CDR-H3": "GENAGTFDI", "log10 Kd (nM) by replicate": "-0.46 / nd / -1.04 / -1.48 / 0.25 / -0.84", "mean, log10 nM": "-0.71", "signal with controls": "0 of 18"}
{"CDR-H1": "GFDLNEYGIS", "CDR-H2": "VIYADGMRTVYADSVK", "CDR-H3": "GANAGTFDI", "log10 Kd (nM) by replicate": "-0.63 / -0.37 / -0.62 / -0.79 / -0.83 / -0.56", "mean, log10 nM": "-0.63", "signal with controls": "1 of 18 (1.50)"}
{"CDR-H1": "GFDLNEYGIS", "CDR-H2": "VIYADGKRTAYSDSVK", "CDR-H3": "GTVAGTFDV", "log10 Kd (nM) by replicate": "-0.83 / -0.71 / -1.02 / -1.86 / -1.09 / -1.30", "mean, log10 nM": "-1.13", "signal with controls": "0 of 18"}
{"CDR-H1": "GFDLNEYGIS", "CDR-H2": "VIYADGVRTFYADSVK", "CDR-H3": "GNTAGTFDI", "log10 Kd (nM) by replicate": "0.25 / 0.26 / -0.62 / -0.49 / -0.72 / -0.20", "mean, log10 nM": "-0.25", "signal with controls": "0 of 18"}
{"CDR-H1": "GFDLEDYGIS", "CDR-H2": "VIYADGMRTAYSDSVK", "CDR-H3": "GNVAGTFDI", "log10 Kd (nM) by replicate": "0.27 / -0.66 / -0.10 / -1.04 / -0.03 / -1.40", "mean, log10 nM": "-0.49", "signal with controls": "0 of 18"}
{"CDR-H1": "GFDLDEYGIS", "CDR-H2": "VIYADGRRTAYADSVK", "CDR-H3": "GTNAGTFDL", "log10 Kd (nM) by replicate": "-0.30 / -0.39 / -0.13 / -0.45 / -0.38 / -0.27", "mean, log10 nM": "-0.32", "signal with controls": "0 of 18"}
{"CDR-H1": "GFDLNEYGIS", "CDR-H2": "VIYADGKRTAYADDVK", "CDR-H3": "GNEAGTFDI", "log10 Kd (nM) by replicate": "-0.05 / -0.22 / -0.08 / -0.76 / -0.80 / 0.56", "mean, log10 nM": "-0.23", "signal with controls": "0 of 18"}
{"CDR-H1": "GFDLNEYGIS", "CDR-H2": "VIYADGRRTAYADDVK", "CDR-H3": "GNTAGTFDQ", "log10 Kd (nM) by replicate": "-0.28 / -0.22 / 0.43 / -0.12 / 0.18 / 0.01", "mean, log10 nM": "0.00", "signal with controls": "0 of 18"}
{"CDR-H1": "GFDLNEYGIS", "CDR-H2": "VIYADGMRTAYADSVK", "CDR-H3": "GKVAGTFDL", "log10 Kd (nM) by replicate": "-0.20 / -0.18 / 0.20 / -0.44 / -0.22 / 0.28", "mean, log10 nM": "-0.09", "signal with controls": "2 of 18 (1.39)"}
{"CDR-H1": "GFDLNEYGIS", "CDR-H2": "VIYADGMRKAYADSVK", "CDR-H3": "GNQAGTFDI", "log10 Kd (nM) by replicate": "-0.63 / -0.79 / -0.72 / -0.96 / -1.10 / -0.56", "mean, log10 nM": "-0.79", "signal with controls": "0 of 18"}
{"CDR-H1": "GFDLNEYGIS", "CDR-H2": "VIYADGRRTAYADSVK", "CDR-H3": "GTNAGTFDI", "log10 Kd (nM) by replicate": "nd / 2.12 / nd / nd / nd / nd", "mean, log10 nM": "2.12", "signal with controls": "0 of 18"}
{"CDR-H1": "GFDLDEYGIS", "CDR-H2": "VIYADGQRTFYADSVK", "CDR-H3": "GEVAGTFDL", "log10 Kd (nM) by replicate": "0.01 / 0.00 / -0.27 / -0.67 / 0.03 / -0.02", "mean, log10 nM": "-0.15", "signal with controls": "1 of 18 (2.85)"}
{"CDR-H1": "GFDLNEYGIS", "CDR-H2": "VIYADGMRKAYADSVK", "CDR-H3": "GNNAGTFDL", "log10 Kd (nM) by replicate": "-0.05 / 0.15 / nd / 0.42 / 1.50 / 1.26", "mean, log10 nM": "0.66", "signal with controls": "0 of 18"}
{"CDR-H1": "GFDLDEYGIS", "CDR-H2": "VIYADGMRTAYADSVK", "CDR-H3": "GENAGTFVQ", "log10 Kd (nM) by replicate": "-0.93 / -0.18 / -0.61 / 0.02 / -0.91 / -1.35", "mean, log10 nM": "-0.66", "signal with controls": "0 of 18"}
{"CDR-H1": "GFDLNEYGIS", "CDR-H2": "VIYADGKRTAYADDVK", "CDR-H3": "GENAGTFDT", "log10 Kd (nM) by replicate": "-0.26 / -0.36 / -0.36 / -0.39 / -0.17 / 0.62", "mean, log10 nM": "-0.15", "signal with controls": "0 of 18"}
{"CDR-H1": "GFDLNEYGIS", "CDR-H2": "VIYADGMRTMYADSVK", "CDR-H3": "GNVAGTFDV", "log10 Kd (nM) by replicate": "-0.40 / -0.48 / -0.36 / -0.61 / -0.31 / -0.19", "mean, log10 nM": "-0.39", "signal with controls": "0 of 18"}
{"CDR-H1": "GFDLNEYGIS", "CDR-H2": "VIYADGMRTAYADSVK", "CDR-H3": "GGVAGTFDQ", "log10 Kd (nM) by replicate": "-0.36 / -0.25 / -0.27 / -0.84 / -0.75 / -0.52", "mean, log10 nM": "-0.50", "signal with controls": "0 of 18"}
{"CDR-H1": "GFDLNEYGIS", "CDR-H2": "VIYADGMRTYYADDVK", "CDR-H3": "GEVAGTFDL", "log10 Kd (nM) by replicate": "-0.12 / -0.30 / -0.75 / -0.68 / -0.87 / -0.49", "mean, log10 nM": "-0.54", "signal with controls": "0 of 18"}
{"CDR-H1": "GFDLDEYGIS", "CDR-H2": "VIYADGRRTAYADDVK", "CDR-H3": "GENAGTFDT", "log10 Kd (nM) by replicate": "0.44 / 0.46 / 0.46 / 0.39 / 0.39 / 0.62", "mean, log10 nM": "0.46", "signal with controls": "0 of 18"}
{"CDR-H1": "GFDLDEYGIS", "CDR-H2": "VIYADGMRTAYADSVK", "CDR-H3": "GENAGTFVV", "log10 Kd (nM) by replicate": "nd / 1.94 / nd / nd / nd / nd", "mean, log10 nM": "1.94", "signal with controls": "0 of 18"}
{"CDR-H1": "GFDLNEYGIS", "CDR-H2": "VIYADGQRTAYADSVK", "CDR-H3": "GNEAGTFDV", "log10 Kd (nM) by replicate": "-0.15 / -0.35 / -0.41 / -0.49 / -0.65 / 0.00", "mean, log10 nM": "-0.34", "signal with controls": "0 of 18"}
{"CDR-H1": "GFDLNEYGIS", "CDR-H2": "VIYADGKRTFYADSVK", "CDR-H3": "GNNAGTFDV", "log10 Kd (nM) by replicate": "-0.40 / -0.59 / -0.45 / -0.62 / -0.82 / -0.68", "mean, log10 nM": "-0.59", "signal with controls": "0 of 18"}
{"CDR-H1": "GFDLDEYGIS", "CDR-H2": "VIYADGKRTFYADSVK", "CDR-H3": "GNVAGTFDI", "log10 Kd (nM) by replicate": "-0.03 / -0.81 / -0.72 / -0.58 / -0.82 / -0.40", "mean, log10 nM": "-0.56", "signal with controls": "0 of 18"}
{"CDR-H1": "GFDLNEYGIS", "CDR-H2": "VIYADGQRTAYADNVK", "CDR-H3": "GEVAGTFDV", "log10 Kd (nM) by replicate": "-0.38 / -0.51 / -0.52 / -0.54 / -0.56 / -0.36", "mean, log10 nM": "-0.48", "signal with controls": "1 of 18 (1.80)"}

2 of these entries, quoted again:

CDR-H1,CDR-H2,CDR-H3,log10 Kd (nM) by replicate,"mean, log10 nM",signal with controls
GFDLNEYGIS,VIYADGSRTAYADNVK,GNVAGTFDL,-0.03 / 0.77 / -0.28 / -0.10 / -0.37 / 0.63,0.10,0 of 18
GFDLNEYGIS,VIYADGRRTAYADDVK,GNTAGTFDQ,-0.28 / -0.22 / 0.43 / -0.12 / 0.18 / 0.01,0.00,0 of 18

Values reported by Li et al. 2023, doi:10.1038/s41467-023-39022-2 (FLAb copy).